## Measured affinities in a library of Ab-14 light chain variants

Values reported by Engelhart et al. 2022, doi:10.1038/s41597-022-01779-4 (FLAb copy).

Target: peptide PDVDLGDISGINAS, taken from heptad repeat 2 (HR2) of SARS-CoV-2 spike.

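Phage display of a naive human antibody library on the peptide gave the parent. In library AAYL50, one, two or three CDR residues were substituted; doubles and triples were drawn at random. The scFvs were displayed on barcoded MATa yeast, the peptide on MATalpha yeast. The frequency of each diploid, read from paired DNA barcodes, reflects how well the two displayed proteins bind. Each replicate has its own calibration line, from reference interactions of the BCL2 family. Mating was done three times.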

The variants keep the heavy chain, the linker and the frameworks of Ab-14 (scFv order VH, a (GGGGS)3 linker, VL).
VH: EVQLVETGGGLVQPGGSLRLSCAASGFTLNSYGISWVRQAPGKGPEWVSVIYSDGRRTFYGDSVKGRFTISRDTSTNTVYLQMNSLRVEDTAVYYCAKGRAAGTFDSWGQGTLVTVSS
VL: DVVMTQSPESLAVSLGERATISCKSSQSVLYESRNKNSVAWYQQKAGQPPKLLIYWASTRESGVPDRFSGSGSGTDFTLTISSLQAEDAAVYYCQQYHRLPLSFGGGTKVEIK

The parent's light chain CDRs are KSSQSVLYESRNKNSVA, WASTRES, QQYHRLPLS; each variant's own CDRs replace them letter for letter. All variants listed here change K36 of the VL, counted from its first residue. The Kd shown is the geometric mean over detected replicates; a lower Kd is a better binder. "not detected" means that the variant was in the library but no mating with the target was seen in any replicate; the authors take this as a sign of poor binding, and no number exists.

CDR-L1,CDR-L2,CDR-L3,apparent Kd,seen in
KQSQSQLYESRNCNSVA,WASTRES,QQYHRLPLS,100 nM,3 of 3
KSSQSVLYEARNENSEA,WASTRES,QQYHRLPLS,32 µM,1 of 3
KSSQSVLYQSRNMNSVA,WASTRES,QQYHRLPLS,7.2 nM,3 of 3
KSSQSVLYESRNNNSVA,WASMRES,QQYHRLPLH,18 nM,3 of 3
KSSQSVLYESRNSNSVL,HASTRES,QQYHRLPLS,not detected,0 of 3
KSSQSVLYNSRNINSVG,WASTRES,QQYHRLPLS,35 µM,1 of 3
KSSQCVLYESRNYNSVA,WPSTRES,QQYHRLPLS,8.6 µM,1 of 3
KSSQSVLYETRNFNSVA,WASTRES,QQYHRLPLS,10 nM,3 of 3
KSSQYVLYESRNDNSVA,NASTRES,QQYHRLPLS,100 nM,3 of 3
KSSQSVLFESRNSNSVA,WASTRES,QQYHRLPPS,8.3 µM,1 of 3
KSSQWVLYESRNRNSVA,WASTRES,QQYHRLPTS,100 nM,3 of 3
KSSQSVLYESNNYNSVA,WASTDES,QQYHRLPLS,not detected,0 of 3
KSSQSVLYERRNYNSVA,WHSTRES,QQYHRLPLS,not detected,0 of 3
KSSQSVLYESRNYNSVA,WPSTRES,QQYHMLPLS,not detected,0 of 3
KSSQSVLYESRNRNSVS,WASTRES,QQYHRLWLS,93 µM,1 of 3
KSSQSVLYESRFLNSVA,WASTRES,QQYIRLPLS,110 nM,3 of 3
KSSQSVLYESRNQNSVA,WASTRES,QQVHRLPLK,not detected,0 of 3
KSSDHVLYESRNDNSVA,WASTRES,QQYHRLPLS,6.6 nM,3 of 3
KSSQSVLYESRNVNSVA,WASTHES,QQYHNLPLS,27 µM,1 of 3
KSSQSVLYESRNENSVA,MASTSES,QQYHRLPLS,160 nM,3 of 3
KSSQSVLYESRAVNSVA,WASTRES,QQYHRLPKS,26 µM,3 of 3
KSSQSVLYESRQCNSVA,AASTRES,QQYHRLPLS,1.8 nM,3 of 3
KSSQSVLYESRNENSTA,WASTRES,QQYHRLPLT,not detected,0 of 3
KQSQSVLYESHNTNSVA,WASTRES,QQYHRLPLS,13 nM,3 of 3
KFSQSVLYESRNQNSVA,WASTRES,QQYHRLPGS,1.2 nM,3 of 3
KSSQSVLYESRNSSSVA,WPSTRES,QQYHRLPLS,not detected,0 of 3
KSSQSWLYESRNMNSVA,WASTRES,QQYHRLNLS,1.3 µM,2 of 3
KSSQSVLYESRNTNSVA,YASTRES,QQYSRLPLS,2.0 nM,3 of 3
KSSQSVLYESENLNSVA,WASTRES,QIYHRLPLS,12 µM,1 of 3
KCSQSVLYESRNGNSVA,WASTREH,QQYHRLPLS,2.6 nM,3 of 3
KSSQSVLKKSRNYNSVA,WASTRES,QQYHRLPLS,not detected,0 of 3
KSSQSVLYESRNNNSVA,WASTQES,QTYHRLPLS,16 µM,1 of 3
KSSQSVLYESRNGNSVP,WASTRES,KQYHRLPLS,2.4 µM,2 of 3
KSSQSVLYESANANSVA,WASTRES,QQYHRLPLH,11 nM,3 of 3
KSSQSVLYESRNFNSVA,WASTFES,QQYDRLPLS,not detected,0 of 3
KSSQSVLYESRNHNSVA,FASTRVS,QQYHRLPLS,2.0 nM,3 of 3
KSSQSVLYESRNLNSLA,WASTRES,QQYHRLELS,not detected,0 of 3
KSSQWVLYESDNLNSVA,WASTRES,QQYHRLPLS,68 nM,3 of 3
VSSQSVLYESRNFNSVA,WASTRES,QQIHRLPLS,2.8 µM,2 of 3
KSKQSVLYESRNGNSVA,RASTRES,QQYHRLPLS,13 nM,3 of 3
KSSQSVLYPSRNSNSVA,WAFTRES,QQYHRLPLS,1.8 µM,2 of 3
KSSQSVGYESRNLNSVA,WASTRES,MQYHRLPLS,20 µM,2 of 3
KSSQSVLYESRNINSVA,WASTRES,QQYHVLPLG,50 nM,3 of 3
KSSQSVLYEQRNFNSVA,WASTRES,QQYHRLPLS,6.4 nM,3 of 3
KKSQSVLYESRNRNSVA,WASTRES,QQYHRLPLT,41 nM,1 of 3
KSSQSVIYESRNFNSVA,WASTQES,QQYHRLPLS,17 µM,3 of 3
KSSQSVLYESRNMNSVA,WASTREK,NQYHRLPLS,47 nM,3 of 3
KSSQSVLYESRNSNSVA,TASTRES,QDYHRLPLS,4.3 nM,3 of 3
KSSQSVLYESRNYNSVA,WASTRES,QQYHRLPLL,not detected,0 of 3
KSSQSPLYESRNANSVA,WASTRES,QQYHRLPLS,5.7 nM,3 of 3

The closing 8 entries, repeated:

CDR-L1,CDR-L2,CDR-L3,apparent Kd,seen in
KSSQSVLYESRNINSVA,WASTRES,QQYHVLPLG,50 nM,3 of 3
KSSQSVLYEQRNFNSVA,WASTRES,QQYHRLPLS,6.4 nM,3 of 3
KKSQSVLYESRNRNSVA,WASTRES,QQYHRLPLT,41 nM,1 of 3
KSSQSVIYESRNFNSVA,WASTQES,QQYHRLPLS,17 µM,3 of 3
KSSQSVLYESRNMNSVA,WASTREK,NQYHRLPLS,47 nM,3 of 3
KSSQSVLYESRNSNSVA,TASTRES,QDYHRLPLS,4.3 nM,3 of 3
KSSQSVLYESRNYNSVA,WASTRES,QQYHRLPLL,not detected,0 of 3
KSSQSPLYESRNANSVA,WASTRES,QQYHRLPLS,5.7 nM,3 of 3

Nonspecific signal, from three strains lacking the peptide, appeared in 18% of pairings of library AAYL50, centred on 15 µM (5% of these signals below 970 nM); values are not corrected for it. Parent in this assay: reference entry 4.4 nM, copy in this library 48 nM.